In US20260382588A1, “COMPOUNDS CONTAINING A HYDROXYPHENYL MOIETY AND THEIR USE” (published 2026):

Legend:
[1] = tested on: Xbp1 mRNA splicing in U87 cells; experiment: Xbp1 mRNA splicing in tunicamycin-stressed U87 cells; conditions: 1 μg/mL tunicamycin, 24 hrs, 25 μM compound (FIG. 2B)
Description: FIG. 2: Compound 33 (Z4) and compound 28 (Z4P) inhibit IRE1 activity in cellular models. (A) Protein levels of IRE1 and phospho-IRE1 in U87 cells treated with compound 33 (Z4) and compound 28 (Z4P) over 24 hours. Fold change of protein expression between IRE1 and phospho-IRE1 is represented in bar chart form normalized to untreated U87 cells. (B) Quantification of XBP1s mRNA levels upon treatment with 1 μg/mL Tunicamycin over 24 hrs in the presence or absence of pre-treatments with 25 μM compound 33 (Z4) or compound 28 (Z4P) normalized to untreated U87 cells. (C) Quantification of SPARC mRNA levels in the presence of 5 μg/mL Actinomycin D and presence or absence of 10 μg/mL Tunicamycin and 9 μg/mL compound 33 (Z4) or compound 28 (Z4P) over 4 hours in U87 cells. […] The non-linear regression was calculated using the GraphPad Prism software. […]
Cell culture and treatments—U87MG (U87; ATCC) cells were authenticated as recommended by AACR (http://aacrjoumals.org/content/cell-line-authentication-information) and regularly tested for the absence of mycoplasma using MycoAlert® (Lonza, Basel, Switzerland) or MycoFluor (Invitrogen, Carlsbad, CA, USA). […] After 6 days of incubation, WST1 reagent (Roche) was added to each well and post 2-hour incubation the plate was read using a Tecan 200 colorimeter. […]
Quantitative real-time PCR—Total RNA was prepared using TRIzol reagent (Invitrogen, Carlsbad, CA, USA). […]

[2] = tested on: RADH87 cells; experiment: Proteome analysis of treated RADH87 cells
Description: Proteomic analyses—Untreated and MKC8866 and compound 33 (Z4)-treated (during 48 hours) parental U251 and RADH87 GB cells as well as DN IRE1 U251 and RADH87 cells were lysed with lysis buffer composed of 20 mM Tris pH 8, 1.5 mM EDTA, 150 mM NaCl, 1% Triton X-100, 0.1% SDS, supplemented with proteases and phosphatases inhibitor cocktails (Roche). Total proteins were precipitated with 80% ice-cold acetone. Washed pellet were then denatured with 8 M urea in Tris-HCl 0.1 mM, reduced with 5 mM TCEP for 30 minutes, and then alkylated with 10 mM iodoacetamide for 30 minutes in the dark. […] Samples were analyzed using an Ultimate 3000 nano-RSLC (Thermo Scientific, San Jose California) coupled in line with a LTQ-Orbitrap ELITE mass spectrometer via a nano-electrospray ionization source (Thermo Scientific, San Jose California). Proteins were identified and quantified by database searching using SequestHT (Thermo Fisher Scientific) with Proteome Discoverer 2.4 software (PD2.4, Thermo Fisher Scientific) against Homo sapiens reviewed SwissProt database. Peptides and proteins were filtered with a false discovery rate (FDR) at 1% and their quantification was based on XIC (Extracted Ion Chromatogram). […]

SMILES	Xbp1 mRNA splicing [1]	pathways impacted in proteome ([2]; 48 hours)	proteome alterations versus cells with genetically blunted IRE1 activity ([2]; comparison with DN and Q780stop)
Cc1ccc(C(N)=O)cc1NC(=O)NC(C)CCc1ccc(O)cc1 (racemic)	inhibited Xbp1 mRNA splicing	impacted on particular pathways such as cell adhesion, circulatory system development, cell locomotion and cell migration	phenocopied those observed in cells in which IRE1 activity was genetically blunted
Cc1ccc(C)c(NC(=O)NC(C)CCc2ccc(O)cc2)c1 (racemic)	inhibited Xbp1 mRNA splicing		
